Assay results: PubChem BioAssay AID813 (Sanford-Burnham Center for Chemical Genomics, 2007)
Only a part is listed here, and it is no random draw. The source made the active and inactive calls.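 The calls were made as follows: active = activation factor of at least 2 at 20 µM, relative to controls; inactive = the rest.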

Amino acid sequences for entries named in this document (tags omitted). A change or cut given only in a name is not applied to a line headed by its entry.
UniProt P05186: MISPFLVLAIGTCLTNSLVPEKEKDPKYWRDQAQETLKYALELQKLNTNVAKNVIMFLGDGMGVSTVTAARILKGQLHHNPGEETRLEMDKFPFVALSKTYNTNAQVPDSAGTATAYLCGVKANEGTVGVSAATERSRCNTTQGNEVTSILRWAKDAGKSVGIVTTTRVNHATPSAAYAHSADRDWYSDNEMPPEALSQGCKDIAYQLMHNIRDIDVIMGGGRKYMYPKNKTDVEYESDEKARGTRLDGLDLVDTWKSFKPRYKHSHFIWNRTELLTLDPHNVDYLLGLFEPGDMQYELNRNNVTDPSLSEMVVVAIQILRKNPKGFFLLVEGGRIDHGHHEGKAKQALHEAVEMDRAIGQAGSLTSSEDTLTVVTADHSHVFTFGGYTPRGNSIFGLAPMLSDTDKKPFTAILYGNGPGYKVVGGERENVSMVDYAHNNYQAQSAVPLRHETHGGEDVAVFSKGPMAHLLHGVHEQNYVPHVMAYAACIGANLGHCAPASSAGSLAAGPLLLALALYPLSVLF

Biological target: Alkaline phosphatase, tissue-nonspecific isozyme (Homo sapiens) (UniProt P05186)
Assay: stimulation of alkaline phosphatase TNAP activity – biochemical, luminescent, intermediate phosphate acceptor level, primary screen (AID 813)
Settings: purified TNAP, CDP-star luminescence, 100 mM DEA, 30 min; at 20 µM; stronger effect = higher value; scale: 0 levamisole-inhibited, 1 vehicle-only enzyme

Row | SMILES | activation factor
1 | O=C(OC1CN2CCC1CC2)C12CC3CC(CC(C3)C1)C2 (configuration not stated) | inactive: 1
2 | O=P1(Nc2ncccn2)COc2ccccc2OC1 | inactive: 1
3 | Clc1n[nH]nc1-c1nn[nH][15n]1 | inactive: 1
4 | CCOP1(=S)c2c(C)nn(CCC#N)c2N=C(c2ccc(F)cc2)N1C (configuration not stated) | inactive: 1
5 | COC(=O)c1cc2c(s1)N=C(c1ccccc1)N(C)P2(=O)N1CCOCC1 (configuration not stated) | inactive: 1
6 | O=P(Nc1nccs1)(c1ccccc1)c1ccccc1 | inactive: 0.8
7 | Cc1c2non([O-])c-2c(C)[n+](=O)[n+]1[O-] | inactive: 1
